{"source": "patent EP0632806B1", "about": "(priority 1992, dated 1993)", "key": {"[1]": {"system": "rats", "assay": "Estimated LD50 in rats"}, "[2]": {"system": "mice", "assay": "Estimated LD50 in mice"}}, "data": [{"smiles": "CN(C(=O)Cc1cccc2sccc12)[C@@H]1CCCC[C@H]1N1CCCC1", "note": "(racemic)", "values": [{"measurement": "LD50", "setting": "[1]", "value": 32, "unit": "µmol/kg"}, {"measurement": "LD50", "setting": "[2]", "value": 27, "unit": "µmol/kg"}]}]}
